AlphaSeq binding of Ab-14 light chain variants to a spike HR2 peptide

Binding partner: SARS-CoV-2 spike HR2 peptide, sequence PDVDLGDISGINAS.

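The starting antibody came from a phage panning campaign against this peptide. Library AAYL50 holds single substitutions and randomly drawn double and triple substitutions in the CDRs. The assay is AlphaSeq: two haploid yeast populations carry antibody and antigen on their surface. Mating (16 h, 30 °C) was followed by selection of diploids and sequencing of their barcodes. Each replicate has its own calibration line, from reference interactions of the BCL2 family. The assay was run in three technical replicates.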

Each scFv is VH, a 15-residue (Gly4Ser)3 linker, VL, as in the parent Ab-14, and differs from it in the CDRs of the light chain only.
VH: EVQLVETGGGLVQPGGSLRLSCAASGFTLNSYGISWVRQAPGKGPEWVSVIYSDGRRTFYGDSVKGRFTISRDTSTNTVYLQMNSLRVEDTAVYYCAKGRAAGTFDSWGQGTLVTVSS
VL: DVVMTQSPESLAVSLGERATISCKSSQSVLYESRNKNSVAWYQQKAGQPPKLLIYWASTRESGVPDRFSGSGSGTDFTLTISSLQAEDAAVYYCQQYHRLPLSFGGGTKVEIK

The parent's light chain CDRs are KSSQSVLYESRNKNSVA, WASTRES, QQYHRLPLS; each variant's own CDRs replace them letter for letter.
Numbers give log10(Kd / nM), so 0 is 1 nM and 3 is 1 µM. Smaller is tighter.
Replicates are averaged; those with no signal do not enter the mean.
"n.d." means that the variant was in the library but no mating with the target was seen in that replicate; the authors take this as a sign of poor binding, and no number exists.
Empty control strains, which show no peptide, gave a signal in 18% of pairings with library AAYL50; the median was 4.19 and 95% of these signals were weaker than 2.99. No background was subtracted. The control count says in how many pairings with the empty strains this scFv gave a signal, with their mean in brackets.

CDR-L1,CDR-L2,CDR-L3,log10 Kd (nM) by replicate,mean log10 Kd (nM),empty controls
KSSFSVLFESRNKNDVA,WASTRES,QQYHRLPLS,1.78 / 2.25 / 1.85,1.96,0/9
KSSQSVLYESRNLNSVA,WNSTRTS,QQYHRLPLS,4.10 / 3.18 / 4.20,3.83,3/9 (4.86)
KSSQSVLYESRNKNRVA,WASTREA,QQYCRLPLS,4.77 / 3.94 / 5.82,4.84,6/9 (4.28)
TSSQSVLYESRNKNSVA,WASSRES,QQYHRLPLS,3.32 / 3.56 / 3.01,3.30,5/9 (4.89)
KSSQSVLYESRNKNSVA,WASGREY,QQYHRLPLS,n.d. / n.d. / 4.09,4.09,2/9 (3.58)
KSSQSVLYESRNKNSVA,WAVTYES,QQYHRGPLS,n.d. / n.d. / n.d.,n.d.,0/9
KSSQSVLYGSIKKNSVA,WASTRES,QQYHRLPLS,0.71 / 0.83 / 0.78,0.77,3/9 (4.78)
KSSQSVLYPSRNKNSVA,WISTRES,QQYHRLGLS,4.22 / 3.60 / n.d.,3.91,1/9 (5.00)
KSSQSVLYESRNKNSVG,WASTHES,QQYHRLPLS,n.d. / n.d. / n.d.,n.d.,1/9 (3.44)
ESSQSVWMESRNKNSVA,WASTRES,QQYHRLPLS,0.49 / 0.80 / 0.69,0.66,4/9 (5.08)
KASQSVLYKSRNKNSVA,WASTRES,QQYHRLPLK,2.93 / 2.65 / 2.85,2.81,3/9 (4.52)
KSSDSVLYESRNKNSVA,WASTRES,QQYHRLPLS,1.76 / 1.43 / 1.55,1.58,2/9 (4.17)
KSDQSVLYESRNKNSVA,WAWTTES,QQYHRLPLS,4.21 / 5.22 / 3.85,4.43,4/9 (4.73)
KSEQSVLYESRNKNSVA,WASTRES,QAYHHLPLS,n.d. / n.d. / n.d.,n.d.,2/9 (2.90)
KSSQSVLYESRYKNSVA,WASTRES,QQYHRLPLT,2.02 / 2.79 / 2.39,2.40,0/9
KSSQAVLAESRNKNSVA,WASTRES,QQYHRLPLS,0.57 / 0.74 / 0.60,0.63,6/9 (4.42)
KSSQSVLYESYNKNSVA,WASTRES,QQYHEDPLS,n.d. / n.d. / n.d.,n.d.,2/9 (3.60)
KSSQSVLYESRNKNSVA,IADTRES,VQYHRLPLS,n.d. / n.d. / n.d.,n.d.,1/9 (2.24)
KSSQSVLYESRNKNSVR,WASTRES,QCYHRLPLH,n.d. / n.d. / n.d.,n.d.,1/9 (3.54)
KSSQSVLYESRNKNSVA,WASTIES,QQYHRLPLS,n.d. / n.d. / n.d.,n.d.,0/9
KSSNSVLYEHRNKNSVA,WASTRES,QQYHRLPLC,0.95 / 1.03 / 1.31,1.10,0/9
KSSQSVLYESRWKGSVA,WASTRRS,QQYHRLPLS,4.53 / 4.57 / n.d.,4.55,3/9 (3.80)
KSSQSVLNESRNKNSVV,WASTRES,QQYHRLPLR,n.d. / n.d. / n.d.,n.d.,0/9
KSSQSVLYESNNKNSVA,WASTRES,QRYHLLPLS,1.35 / 1.51 / 1.42,1.43,2/9 (4.08)
KSSQSFLYESRNENSVA,WASTRES,QQYHRLDLS,n.d. / n.d. / n.d.,n.d.,0/9
KSSYSVLYESRTKNSVA,WMSTRES,QQYHRLPLS,3.15 / 3.38 / n.d.,3.27,0/9
KSSQSVLYESRNKNSMA,WASTRFS,YQYHRLPLS,n.d. / 3.21 / n.d.,3.21,1/9 (5.00)
KSSQSVLYFSDNKNSVA,WASMRES,QQYHRLPLS,n.d. / n.d. / n.d.,n.d.,1/9 (4.67)
KSSQSVLYVSRNKNSVA,WAETRES,QQYHRLPLP,2.53 / 2.54 / 2.61,2.56,1/9 (4.39)
KSSQSDLYESHNKNSVA,WASTRES,QQYHRLPLS,0.75 / 0.79 / 0.71,0.75,4/9 (4.82)
KSSQSVLDESRNKNSVA,WASTRES,TQIHRLPLS,1.09 / 1.22 / 1.27,1.20,6/9 (4.31)
KSQNSVLYESRNKNIVA,WASTRES,QQYHRLPLS,3.67 / n.d. / n.d.,3.67,1/9 (3.46)
KSSQSVLYESRNKNSVR,WKSTRES,QQPHRLPLS,n.d. / 3.99 / 4.25,4.12,3/9 (4.02)
KSSQSVLYESRNKNSVA,WASTREE,QQYHRLPLS,1.20 / 1.13 / 0.92,1.08,4/9 (3.89)
KSSQSVLYESRNKNSVA,WASTREL,QDYHRLPLI,2.01 / 1.92 / 2.08,2.00,8/9 (4.51)
KSSNSVLYESRNKNSVR,WASTFES,QQYHRLPLS,n.d. / n.d. / n.d.,n.d.,2/9 (4.13)
KSSQSVLYESRSKNSVA,WASTREQ,QQYHRKPLS,4.19 / n.d. / n.d.,4.19,2/9 (3.78)
KSSQSVLYESRNKNSVA,WASTRGN,QQYHRLMLS,1.74 / 2.33 / 1.71,1.93,0/9
GSSQSVLYESRNKNSVA,WALTRES,QQYHRLGLS,n.d. / n.d. / n.d.,n.d.,1/9 (4.45)
KLSQSVLYESMNKNSVA,WASLRES,QQYHRLPLS,0.10 / 0.39 / 0.17,0.22,7/9 (5.57)
KSSQSVLYESRNKNSVF,WASTREW,QQYHRLPLF,n.d. / n.d. / n.d.,n.d.,1/9 (3.15)
KSSQSVLYESRNKNYSA,WAYTRES,QQYHRLPLS,n.d. / n.d. / n.d.,n.d.,1/9 (3.55)
KSSHSVLYESRSKNSVA,WASQRES,QQYHRLPLS,1.11 / 1.37 / 1.34,1.27,3/9 (4.94)
KSSQSVLYESRNKNSVA,WASTRCS,QQYHRLPLV,0.66 / 0.83 / 0.64,0.71,0/9
KSSQSVLYESRNKISVA,FASTRES,QQYHRDPLS,3.94 / n.d. / 3.26,3.60,4/9 (4.59)
KSSQSVLYESRNKNSVA,WASTRES,QLFHRLPLS,2.57 / 2.92 / 2.36,2.62,2/9 (4.26)
WSSQSVLYESRNKNSVA,WASTRES,QQYHRAPLN,2.39 / 1.85 / 2.40,2.21,3/9 (3.75)
KSSDSVLYESRNKNSVA,WASTREM,QQLHRLPLS,n.d. / n.d. / n.d.,n.d.,2/9 (3.64)

Excerpt, the first 4 entries:

CDR-L1,CDR-L2,CDR-L3,log10 Kd (nM) by replicate,mean log10 Kd (nM),empty controls
KSSFSVLFESRNKNDVA,WASTRES,QQYHRLPLS,1.78 / 2.25 / 1.85,1.96,0/9
KSSQSVLYESRNLNSVA,WNSTRTS,QQYHRLPLS,4.10 / 3.18 / 4.20,3.83,3/9 (4.86)
KSSQSVLYESRNKNRVA,WASTREA,QQYCRLPLS,4.77 / 3.94 / 5.82,4.84,6/9 (4.28)
TSSQSVLYESRNKNSVA,WASSRES,QQYHRLPLS,3.32 / 3.56 / 3.01,3.30,5/9 (4.89)

Source: Engelhart et al. 2022 (doi:10.1038/s41597-022-01779-4), MIT Lincoln Laboratory and A-Alpha Bio; data file from the FLAb repository.